# Target: mGlu5 Y658V (Rattus norvegicus, UniProt P31424, Y658V)
# The chains behind the UniProt entries cited, without tags or fusion partners. Residues count along the entry.
# UniProt P31424, 21-1203 Y658V: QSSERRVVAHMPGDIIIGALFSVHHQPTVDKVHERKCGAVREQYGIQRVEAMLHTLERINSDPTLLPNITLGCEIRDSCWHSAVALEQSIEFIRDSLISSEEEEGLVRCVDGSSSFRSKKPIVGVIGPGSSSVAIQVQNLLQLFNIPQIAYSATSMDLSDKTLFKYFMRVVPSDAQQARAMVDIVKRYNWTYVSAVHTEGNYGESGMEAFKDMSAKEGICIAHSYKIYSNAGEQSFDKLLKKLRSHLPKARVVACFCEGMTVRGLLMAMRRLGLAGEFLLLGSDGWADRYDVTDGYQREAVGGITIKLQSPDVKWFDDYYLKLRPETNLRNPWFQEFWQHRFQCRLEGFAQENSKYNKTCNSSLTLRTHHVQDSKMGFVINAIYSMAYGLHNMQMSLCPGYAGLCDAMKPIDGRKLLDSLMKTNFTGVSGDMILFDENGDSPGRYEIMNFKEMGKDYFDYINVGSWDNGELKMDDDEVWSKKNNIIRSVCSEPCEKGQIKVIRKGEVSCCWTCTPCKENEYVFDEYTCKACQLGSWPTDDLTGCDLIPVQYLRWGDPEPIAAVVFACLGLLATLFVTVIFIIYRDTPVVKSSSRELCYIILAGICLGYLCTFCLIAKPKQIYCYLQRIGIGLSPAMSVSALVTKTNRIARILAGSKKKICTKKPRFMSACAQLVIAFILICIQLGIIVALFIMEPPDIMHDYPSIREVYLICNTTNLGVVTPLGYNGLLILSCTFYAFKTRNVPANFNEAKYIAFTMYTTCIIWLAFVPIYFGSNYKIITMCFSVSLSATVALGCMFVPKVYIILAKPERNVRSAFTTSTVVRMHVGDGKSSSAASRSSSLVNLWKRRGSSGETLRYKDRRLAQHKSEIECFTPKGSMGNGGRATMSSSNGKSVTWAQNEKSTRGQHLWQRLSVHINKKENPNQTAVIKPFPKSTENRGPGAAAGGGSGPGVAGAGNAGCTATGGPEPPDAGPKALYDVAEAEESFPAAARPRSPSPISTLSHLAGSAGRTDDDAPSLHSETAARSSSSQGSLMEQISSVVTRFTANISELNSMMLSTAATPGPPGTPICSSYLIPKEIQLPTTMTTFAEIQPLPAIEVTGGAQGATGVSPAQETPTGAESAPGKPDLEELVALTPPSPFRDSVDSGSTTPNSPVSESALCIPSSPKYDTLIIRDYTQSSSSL
# Assay: Progressive fold-shift at mGlu5 point mutant, operational model of allosterism
row,SMILES,Effect of Y658V mutation
1,"C[C@@H](NC(=O)c1ccc(C#Cc2ccccn2)cn1)C(C)(C)O [Compound 31i, (R)-N-(3-Hydroxy-3-methylbutan-2-yl)-5-(pyridin-2-ylethynyl)picolinamide]",no effect on affinity or cooperativity
2,"CC1(NC(=O)c2ccc(C#Cc3cccc(F)c3)cn2)COC1 [Compound 38t, 5-((3-Fluorophenyl)ethynyl)-N-(3-methyloxetan-3-yl)picolinamide]",NAM switch

# Reference: paper PMC3908770 (Journal of medicinal chemistry, 2013)
